The test system of this test is phenyl-p-benzoquinone writhing. The experiment in a line: Phenylquinone Writhing (PQW), analgesic. The settings on record: for PQW mouse ED50: po. It is filed as in vivo, mouse. Background: Writhing tests count abdominal constrictions after an irritant is injected.

As to `c1ccc(N2c3ccccc3[C@@H]3CN(CC4CCC4)CC[C@H]32)cc1` [compound of Example 2, (+)-trans-2-(cyclobutylmethyl)-2,3,4,4a,5,9b-hexahydro-5-phenyl-1H-pyrido[4,3-b]indole], the “PQW mouse ED50” value is recorded as 2 mg/kg.

Regarding `C#CCN1CC[C@@H]2[C@@H](C1)c1ccccc1N2c1ccccc1` (relative stereo), the “PQW mouse ED50” value was 3 mg/kg.

Turning to `c1ccc(N2c3ccccc3[C@@H]3CNCC[C@H]32)cc1` (single isomer, unassigned), the “PQW mouse ED50” value amounted to 0.9 mg/kg. Moreover, the “separation of analgesic activity from sedative activity (difference in dose)” value (analgesic vs sedative dose) stood at 10 fold. Also, where the note is “mice”, the “analgesic potency relative to aspirin” value is reported as 100 times and the “analgesic potency relative to codeine” value is reported as “about 20 times”. The “Analgesic Dose (mice)” value (mice, comparison table) stood at 1 mg/kg.

For `CN1CC[C@@H]2[C@@H](C1)c1ccccc1N2c1ccccc1.Cl`, the “PQW mouse ED50” value is given as 4 mg/kg.

As for `c1ccc(N2c3ccccc3[C@@H]3CN(C4CCCC4)CC[C@H]32)cc1` (relative stereo), the “PQW mouse ED50” value is on record as 7.7 mg/kg.

`CC(C)CN1CC[C@@H]2[C@@H](C1)c1ccccc1N2c1ccccc1` (racemic): the “PQW mouse ED50” value is given as 4 mg/kg.

As for `CC(C)(C)CN1CC[C@@H]2[C@@H](C1)c1ccccc1N2c1ccccc1.Cl` (racemic), the “PQW mouse ED50” value came out at 13 mg/kg.

On to `CC(C)(C)N1CC[C@@H]2[C@@H](C1)c1ccccc1N2c1ccccc1.Cl` (racemic), for which the “PQW mouse ED50” value is listed as 40 mg/kg.

Turning to `CCN1CC[C@@H]2[C@@H](C1)c1ccccc1N2c1ccccc1.Cl` (racemic), the “PQW mouse ED50” value is reported as 1 mg/kg.

Take `C=CCN1CC[C@@H]2[C@@H](C1)c1ccccc1N2c1ccccc1` (racemic): the “PQW mouse ED50” value was determined as 4 mg/kg.

Consider `CN1CC[C@@H]2[C@@H](C1)c1cc(Br)ccc1N2c1ccc(Br)cc1.Cl` (racemic), for which the “PQW mouse ED50” value is on record as 2.5 mg/kg.

As to `CN1CC[C@@H]2[C@@H](C1)c1ccccc1N2c1cccc(C(F)(F)F)c1` (relative stereo), the “PQW mouse ED50” value is given as 24 mg/kg.

Turning to `c1ccc(N2c3ccccc3[C@@H]3CN(CC4CC4)CC[C@H]32)cc1` (relative stereo), the “PQW mouse ED50” value was found to be 3 mg/kg.

With `c1ccc(N2c3ccccc3[C@@H]3CN(C4CC4)CC[C@H]32)cc1` (relative stereo), the “PQW mouse ED50” value is listed as 21 mg/kg.

Regarding `Brc1ccc(N2c3ccc(Br)cc3[C@@H]3CNCC[C@H]32)cc1.Cl` (racemic), the “PQW mouse ED50” value was found to be 19 mg/kg.

As for `CC(C)N1CC[C@@H]2[C@@H](C1)c1ccccc1N2c1ccccc1.Cl` (racemic), the “PQW mouse ED50” value turned out to be 2.6 mg/kg.
